Results from PubChem BioAssay AID1018 (Sanford-Burnham Center for Chemical Genomics, 2008).
The entries are a selection whose mix differs from that of the whole data set. The source made the active and inactive calls. No stated cut-off is given here; in the data, active means displacement above about 50%; inactive means the rest.

Sequences of proteins named here, by UniProt entry; tags and fusion partners are left off.
UniProt P98170, whole entry, looked up: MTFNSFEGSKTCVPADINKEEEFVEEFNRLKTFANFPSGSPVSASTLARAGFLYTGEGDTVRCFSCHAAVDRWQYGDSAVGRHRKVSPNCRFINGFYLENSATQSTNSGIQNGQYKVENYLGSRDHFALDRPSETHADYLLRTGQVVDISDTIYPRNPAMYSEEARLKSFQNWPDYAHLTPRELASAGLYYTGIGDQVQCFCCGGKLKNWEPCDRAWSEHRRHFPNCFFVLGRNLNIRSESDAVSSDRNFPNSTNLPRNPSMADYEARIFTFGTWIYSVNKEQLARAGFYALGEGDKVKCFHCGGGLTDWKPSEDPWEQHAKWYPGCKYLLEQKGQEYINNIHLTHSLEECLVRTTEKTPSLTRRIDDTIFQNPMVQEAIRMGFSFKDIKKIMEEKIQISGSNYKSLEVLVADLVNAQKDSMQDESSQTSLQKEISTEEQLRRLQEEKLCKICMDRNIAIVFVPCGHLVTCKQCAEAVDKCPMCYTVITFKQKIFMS

Molecular target: E3 ubiquitin-protein ligase XIAP (Homo sapiens) (UniProt P98170)
Assay: XIAP antagonists, biochemical, IAP family, fluorescence polarization (AID 1018)
Settings: XIAP BIR domain, fluorescence polarization peptide displacement; at 20 µM; stronger effect = higher value

SMILES	displacement
Cc1cc(SC(NC(=O)c2ccccc2)C(Cl)(Cl)Cl)nc(C(C)C)n1 (centres undefined)	inactive: -4.8%
O=P(Nc1ccccn1)(c1cccc2ccccc12)c1cccc2ccccc12	inactive: -5.9%
Cc1cc(SC(NC=O)C(Cl)(Cl)Cl)ncn1 (centres undefined)	inactive: -10%
O=C(COc1ccccc1)OC1CN2CCC1CC2 (centres undefined)	inactive: -2.5%
COP1(=S)c2c(C)nn(CCC#N)c2N=C(c2ccc(F)cc2)N1C (centres undefined)	inactive: -5.4%
CCC(C)N(CC(C)C)C(=S)SC(NC(C)=O)C(Cl)(Cl)Cl (centres undefined)	inactive: -4.7%
COc1ccc2nc(NP(=O)(c3ccccc3)c3ccccc3)sc2c1	inactive: -3.1%
O=C(OC1CN2CCC1CC2)C12CC3CC(CC(C3)C1)C2 (centres undefined)	inactive: -3.5%
Cc1cc(=O)[nH]c(N[N+](=O)[O-])n1	inactive: -5.8%
Cc1c2c(nc3ccccc13)SC(C(Cl)Cl)C2 (centres undefined)	inactive: -7.8%
COc1ccc(N/C(=N/P(=O)(N2CCOCC2)N2CCOCC2)N2CCOCC2)cc1	inactive: -3.7%
Cc1ccc2nc3c(c(C)c2c1)CC(C(Cl)Cl)S3 (centres undefined)	inactive: -6.8%
CC(C)NC(=O)NP(=O)(Oc1ccccc1)Oc1ccccc1	inactive: -7.2%
CCN(CC)C(=S)SC(NC=O)C(Cl)(Cl)Cl (centres undefined)	inactive: -5.2%
O=[N+]([O-])c1cc([N+](=O)[O-])c(-c2ccn[nH]2)s1	inactive: -3.1%
ClCCSc1nnc(-c2cccnc2)o1	inactive: -5.5%
CCOP1(=S)c2c(C)nn(CCC#N)c2N=C(c2ccccc2F)N1C (centres undefined)	inactive: -3.2%
O=P(Nc1nccs1)(Oc1ccccc1)Oc1ccccc1	inactive: -12.7%
O=P(Nc1nccs1)(c1ccccc1)c1nc2ccccc2s1 (centres undefined)	inactive: -0.5%
O=[N+]([O-])c1ccc2c(c1)nnn2O	inactive: -0.7%
CCOP1(=S)c2c(C)nn(CCC#N)c2N=C(c2ccc(F)cc2)N1C (centres undefined)	inactive: -7.8%
Cc1cccc(OCC(=O)OC2CN3CCC2CC3)c1 (centres undefined)	inactive: -3.1%
COc1cc(C(=O)NCC2(N3CCOCC3)CCCCC2)cc(Cl)c1OC(C)C	inactive: -2.9%
COc1cc(C2NCCC3(OCCO3)C2(C)C)cc(OC)c1OC (centres undefined)	inactive: 0.8%
CCOP(=O)(Nc1cccc2ccccc12)OCC	inactive: -0.7%
Cc1ccc(NCCc2c([N+](=O)[O-])cc([N+](=O)[O-])cc2[N+](=O)[O-])cc1	inactive: -2.2%
Clc1n[nH]nc1-c1nn[nH][15n]1	inactive: -6.1%
O=P1(Nc2ccccn2)COc2ccccc2OC1	inactive: -5.4%
CC(C)/C=N\N=C(\N)N[N+](=O)[O-]	inactive: -4.4%
